pKi: −log10 of the molar value.
Biological target: Translocator protein (Homo sapiens, UniProt P30536)
Assay: Inhibition of human TSPO

Sequences of proteins named here, by UniProt entry; tags and fusion partners are left off.
UniProt P30536, whole entry: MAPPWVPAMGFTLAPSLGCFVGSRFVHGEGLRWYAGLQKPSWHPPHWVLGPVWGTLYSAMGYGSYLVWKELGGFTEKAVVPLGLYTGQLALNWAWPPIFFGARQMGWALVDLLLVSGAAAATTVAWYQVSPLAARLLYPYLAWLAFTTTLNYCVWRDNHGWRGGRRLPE

CC[C@@H](C)N(C)C(=O)c1cc2ccccc2c(-c2ccccc2Cl)n1 [PK 11195]
pKi: 8.35

— BindingDB's records for doi:10.1016/j.ejmech.2015.02.004 (Stanford University School of Medicine, 2015)
